Target: T1, full-length HDMX (Homo sapiens, UniProt O15151)
T1 sequence (O15151 1-490): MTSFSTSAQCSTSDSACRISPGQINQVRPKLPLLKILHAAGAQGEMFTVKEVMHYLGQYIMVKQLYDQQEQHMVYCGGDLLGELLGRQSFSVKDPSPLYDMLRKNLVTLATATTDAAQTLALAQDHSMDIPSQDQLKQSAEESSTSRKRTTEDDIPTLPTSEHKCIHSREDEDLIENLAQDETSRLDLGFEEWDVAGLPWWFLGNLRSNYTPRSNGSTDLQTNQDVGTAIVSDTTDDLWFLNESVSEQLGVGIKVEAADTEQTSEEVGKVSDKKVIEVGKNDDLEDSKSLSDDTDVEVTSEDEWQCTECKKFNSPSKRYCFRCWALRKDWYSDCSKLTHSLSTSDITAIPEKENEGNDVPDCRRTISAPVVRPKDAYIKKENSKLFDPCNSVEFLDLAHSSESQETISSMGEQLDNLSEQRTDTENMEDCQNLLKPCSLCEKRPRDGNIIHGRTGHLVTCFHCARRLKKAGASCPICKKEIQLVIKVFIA
Assay: FP direct binding of FITC-peptides to HDMX
Settings: fluorescence polarization; FITC-peptide 25 nM, full-length HDMX 25 pM – 100 nM

In the case of “FITC-wild-type p53_14–29: FITC-labeled derivative of wild-type p53_14–29”, the HDMX interaction is reported as “no interaction in this dose range”.

From publication PMC3050021 (Cancer cell, 2010)
